# Type: in vivo
# Details: 150 mg/kg
smiles,measurement,value
O=C(NOC[C@H](O)CO)c1ccc(F)c(F)c1Nc1ccc(I)cc1F [PD-0325901],acute toxicity / survival,recovered over 24 hours

# — US20190328665A1, “LIPOSOME COMPOSITIONS ENCAPSULATING MODIFIED CYCLODEXTRIN COMPLEXES AND USES THEREOF” (priority 2014, published 2019)
